Source: patent publication EP4847505A1, “4-METHYLSULFONYL-SUBSTITUTED PIPERIDINE UREA COMPOUNDS” (dated 2026)

Protein sequences, listed by entry. Tags and fused reporters are not part of them.
UniProt Q9BE39, whole entry: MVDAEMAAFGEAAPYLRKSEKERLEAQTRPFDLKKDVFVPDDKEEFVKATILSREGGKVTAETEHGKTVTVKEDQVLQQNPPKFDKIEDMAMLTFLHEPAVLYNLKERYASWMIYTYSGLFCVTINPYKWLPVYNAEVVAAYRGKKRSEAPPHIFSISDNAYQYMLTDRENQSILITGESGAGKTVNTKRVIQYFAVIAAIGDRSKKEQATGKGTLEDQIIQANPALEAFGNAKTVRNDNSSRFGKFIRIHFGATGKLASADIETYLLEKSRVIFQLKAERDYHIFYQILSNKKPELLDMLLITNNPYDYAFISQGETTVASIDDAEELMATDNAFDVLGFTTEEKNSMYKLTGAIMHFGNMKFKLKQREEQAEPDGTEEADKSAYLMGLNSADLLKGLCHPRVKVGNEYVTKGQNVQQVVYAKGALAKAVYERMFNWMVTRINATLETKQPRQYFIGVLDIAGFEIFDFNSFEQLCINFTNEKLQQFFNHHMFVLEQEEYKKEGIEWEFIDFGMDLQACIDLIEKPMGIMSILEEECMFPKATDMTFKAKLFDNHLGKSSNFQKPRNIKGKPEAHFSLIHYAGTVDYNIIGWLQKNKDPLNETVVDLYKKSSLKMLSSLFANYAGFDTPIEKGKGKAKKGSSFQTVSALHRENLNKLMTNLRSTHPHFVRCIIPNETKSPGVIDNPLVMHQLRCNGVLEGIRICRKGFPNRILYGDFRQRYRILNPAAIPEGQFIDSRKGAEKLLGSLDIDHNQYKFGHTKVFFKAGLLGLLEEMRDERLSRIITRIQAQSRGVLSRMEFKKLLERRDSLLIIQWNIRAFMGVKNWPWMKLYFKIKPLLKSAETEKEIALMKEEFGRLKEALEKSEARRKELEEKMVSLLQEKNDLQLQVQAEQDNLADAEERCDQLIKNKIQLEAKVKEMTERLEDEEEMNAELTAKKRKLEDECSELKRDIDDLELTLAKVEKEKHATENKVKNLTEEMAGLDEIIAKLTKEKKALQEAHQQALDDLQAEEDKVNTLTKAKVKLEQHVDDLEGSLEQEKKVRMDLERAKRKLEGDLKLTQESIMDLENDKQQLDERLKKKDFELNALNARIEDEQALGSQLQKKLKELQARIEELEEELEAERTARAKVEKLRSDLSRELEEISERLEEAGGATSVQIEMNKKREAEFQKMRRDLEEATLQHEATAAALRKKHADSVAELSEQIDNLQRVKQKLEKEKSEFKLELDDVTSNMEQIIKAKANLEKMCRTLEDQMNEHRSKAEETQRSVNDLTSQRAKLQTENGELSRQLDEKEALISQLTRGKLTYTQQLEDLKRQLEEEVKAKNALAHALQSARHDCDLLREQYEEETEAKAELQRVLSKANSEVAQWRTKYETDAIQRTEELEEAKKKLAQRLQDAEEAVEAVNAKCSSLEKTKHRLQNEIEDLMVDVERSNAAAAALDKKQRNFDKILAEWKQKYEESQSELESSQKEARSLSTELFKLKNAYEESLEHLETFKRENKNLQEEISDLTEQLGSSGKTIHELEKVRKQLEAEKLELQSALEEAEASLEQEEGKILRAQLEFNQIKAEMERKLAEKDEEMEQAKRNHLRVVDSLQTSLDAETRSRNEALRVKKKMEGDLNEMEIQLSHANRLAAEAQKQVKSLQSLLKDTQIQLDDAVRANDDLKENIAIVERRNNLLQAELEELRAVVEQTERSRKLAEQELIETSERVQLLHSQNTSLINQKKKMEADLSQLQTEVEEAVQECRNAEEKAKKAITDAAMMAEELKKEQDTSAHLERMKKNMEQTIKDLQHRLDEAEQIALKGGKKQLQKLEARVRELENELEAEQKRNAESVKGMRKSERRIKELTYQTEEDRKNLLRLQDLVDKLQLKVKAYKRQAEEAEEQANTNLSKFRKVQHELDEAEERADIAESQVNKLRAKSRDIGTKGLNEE
UniProt P85100, whole entry partner: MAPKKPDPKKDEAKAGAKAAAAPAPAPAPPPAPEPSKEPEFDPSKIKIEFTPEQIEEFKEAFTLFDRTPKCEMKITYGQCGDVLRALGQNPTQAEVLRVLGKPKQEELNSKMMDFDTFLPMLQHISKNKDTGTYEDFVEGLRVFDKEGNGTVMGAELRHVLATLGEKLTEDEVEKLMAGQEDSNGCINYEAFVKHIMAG
UniProt Q3SZE5, whole entry partner: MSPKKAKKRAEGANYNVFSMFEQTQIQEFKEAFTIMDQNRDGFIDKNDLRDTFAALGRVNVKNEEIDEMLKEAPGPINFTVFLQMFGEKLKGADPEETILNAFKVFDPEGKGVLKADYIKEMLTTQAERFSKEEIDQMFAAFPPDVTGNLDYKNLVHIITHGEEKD

Molecular target: bovine cardiac myosin (Bos taurus, UniProt Q9BE39)
Experiment: Myosin activation assay (PK/LDH-coupled ATPase, bovine cardiac myofibrils)
Conditions: concentration at which the total response is increased by twenty percent

Structure (SMILES) | Myosin Activation (AC20)
O=C(Nc1cncs1)N1CCC(CS(=O)(=O)c2cccc(F)c2)CC1 | + (+ represents myosin activation value AC20 > 5 µM)
Cn1cnc(S(=O)(=O)C(F)(F)C2CCN(C(=O)Nc3ccnnc3)CC2)c1 | + (+ represents myosin activation value AC20 > 5 µM)
Cn1cc(S(=O)(=O)C(F)(F)C2CCN(C(=O)Nc3ccnc(F)c3)CC2)c(C(F)F)n1 | + (+ represents myosin activation value AC20 > 5 µM)
Cc1cc(NC(=O)N2CCC([C@](C)(F)S(=O)(=O)c3cc(C(F)(F)F)nn3C)CC2)ccn1 | +++ (+++ represents myosin activation value AC20 < 2 µM)
Cc1ccc(NC(=O)N2CCC(C(C)(F)S(=O)(=O)c3cccc(F)c3)CC2)cn1 (centres unmarked) | + (+ represents myosin activation value AC20 > 5 µM)
O=C(Nc1ccnnc1)N1CCC(F)(C2(S(=O)(=O)c3cccc(F)c3)CCC2)CC1 | ++ (++ represents myosin activation value AC20 from 2 µM - 5 µM)
CC(F)(C1CCN(C(=O)Nc2cccnc2)CC1)S(=O)(=O)c1cccc(F)c1 (centres unmarked) | ++ (++ represents myosin activation value AC20 from 2 µM - 5 µM)
Cn1cnc(S(=O)(=O)C2(C3CCN(C(=O)Nc4ccnnc4)CC3)CCC2)c1 | + (+ represents myosin activation value AC20 > 5 µM)
Cc1ccccc1S(=O)(=O)C(C)(C)C1CCN(C(=O)Nc2ccns2)CC1 | +++ (+++ represents myosin activation value AC20 < 2 µM)
Cc1ccccc1S(=O)(=O)CC1CCN(C(=O)Nc2ccncc2)CC1 | + (+ represents myosin activation value AC20 > 5 µM)
C[C@](F)(C1CCN(C(=O)Nc2ccon2)CC1)S(=O)(=O)c1ccc(C(F)(F)F)nc1 | ++ (++ represents myosin activation value AC20 from 2 µM - 5 µM)
CC(F)(C1CCN(C(=O)Nc2ccnnc2)CC1)S(=O)(=O)c1cccc(F)c1.O=C(O)C(F)(F)F (centres unmarked) | ++ (++ represents myosin activation value AC20 from 2 µM - 5 µM)
C[C@@H](O)c1cc(NC(=O)N2CCC([C@](C)(F)S(=O)(=O)c3cccc(F)c3)CC2)ccn1 | + (+ represents myosin activation value AC20 > 5 µM)
Cn1cc(S(=O)(=O)C(F)(F)C2CCN(C(=O)Nc3ccc(F)nc3)CC2)c(C(F)F)n1 | + (+ represents myosin activation value AC20 > 5 µM)
CC(C)(C)OC(=O)n1cc(NC(=O)N2CCC(C(C)(F)S(=O)(=O)c3cccc(F)c3)CC2)cn1 (centres unmarked) | + (+ represents myosin activation value AC20 > 5 µM)
Cn1nc(Cl)cc1S(=O)(=O)C(C)(C)C1CCN(C(=O)Nc2ccnnc2)CC1 | +++ (+++ represents myosin activation value AC20 < 2 µM)
CC(F)(C1CCN(C(=O)Nc2ccon2)CC1)S(=O)(=O)c1cccc(C#N)c1 (centres unmarked) | ++ (++ represents myosin activation value AC20 from 2 µM - 5 µM)
O=C(Nc1ccnnc1)N1CCC(C(F)(F)S(=O)(=O)c2ccc(N3CCC3)nc2)CC1 | ++ (++ represents myosin activation value AC20 from 2 µM - 5 µM)
CC(F)(C1CCN(C(=O)Nc2ccnnc2)CC1)S(=O)(=O)c1ccccc1Cl (centres unmarked) | +++ (+++ represents myosin activation value AC20 < 2 µM)
Cn1nc(C(F)(F)F)cc1S(=O)(=O)[C@](C)(F)C1CCN(C(=O)Nc2ccnc(F)c2)CC1 | + (+ represents myosin activation value AC20 > 5 µM)
C[C@](F)(C1CCN(C(=O)Nc2ccnnc2)CC1)S(=O)(=O)c1cccc(F)c1 | +++ (+++ represents myosin activation value AC20 < 2 µM)
Cc1ccccc1S(=O)(=O)C(C)(F)C1CCN(C(=O)Nc2ccnnc2)CC1 (centres unmarked) | +++ (+++ represents myosin activation value AC20 < 2 µM)
C[C@](F)(C1CCN(C(=O)Nc2ccon2)CC1)S(=O)(=O)c1ccc(OC(F)F)nc1 | +++ (+++ represents myosin activation value AC20 < 2 µM)
N#Cc1ccc(S(=O)(=O)C(F)(F)C2CCN(C(=O)Nc3ccnnc3)CC2)c(Cl)c1 | ++ (++ represents myosin activation value AC20 from 2 µM - 5 µM)
Cn1cc(S(=O)(=O)[C@@](C)(F)C2CCN(C(=O)Nc3ccc(C#N)nc3)CC2)c(C(F)F)n1 | +++ (+++ represents myosin activation value AC20 < 2 µM)
Cn1cc(S(=O)(=O)[C@@](C)(F)C2CCN(C(=O)Nc3ccc(C(N)=O)nc3)CC2)c(C(F)F)n1 | ++ (++ represents myosin activation value AC20 from 2 µM - 5 µM)
